Results: patent US20250101490A1, “METHOD FOR SCREENING ACETYLCHOLINESTERASE INHIBITOR” (published 2025)

Amino acid sequences for entries named in this document (tags omitted). Residues count along the entry.
UniProt P22303, 32-614 limits assumed: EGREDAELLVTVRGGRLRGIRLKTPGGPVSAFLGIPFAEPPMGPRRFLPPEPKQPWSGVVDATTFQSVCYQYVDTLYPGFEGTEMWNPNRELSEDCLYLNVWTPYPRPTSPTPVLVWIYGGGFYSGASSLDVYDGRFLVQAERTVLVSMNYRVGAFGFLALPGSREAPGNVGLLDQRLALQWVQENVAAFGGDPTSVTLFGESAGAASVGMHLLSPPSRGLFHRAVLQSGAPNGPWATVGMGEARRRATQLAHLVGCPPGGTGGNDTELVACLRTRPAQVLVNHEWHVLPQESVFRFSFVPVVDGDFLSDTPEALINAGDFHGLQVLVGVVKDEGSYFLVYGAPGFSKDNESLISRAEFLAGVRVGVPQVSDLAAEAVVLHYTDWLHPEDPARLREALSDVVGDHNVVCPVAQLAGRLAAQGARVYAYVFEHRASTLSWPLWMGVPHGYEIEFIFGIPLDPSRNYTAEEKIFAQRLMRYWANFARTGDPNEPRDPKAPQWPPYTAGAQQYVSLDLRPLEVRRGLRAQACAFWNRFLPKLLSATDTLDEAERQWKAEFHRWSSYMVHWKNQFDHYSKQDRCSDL
UniProt P20309, whole entry, looked up: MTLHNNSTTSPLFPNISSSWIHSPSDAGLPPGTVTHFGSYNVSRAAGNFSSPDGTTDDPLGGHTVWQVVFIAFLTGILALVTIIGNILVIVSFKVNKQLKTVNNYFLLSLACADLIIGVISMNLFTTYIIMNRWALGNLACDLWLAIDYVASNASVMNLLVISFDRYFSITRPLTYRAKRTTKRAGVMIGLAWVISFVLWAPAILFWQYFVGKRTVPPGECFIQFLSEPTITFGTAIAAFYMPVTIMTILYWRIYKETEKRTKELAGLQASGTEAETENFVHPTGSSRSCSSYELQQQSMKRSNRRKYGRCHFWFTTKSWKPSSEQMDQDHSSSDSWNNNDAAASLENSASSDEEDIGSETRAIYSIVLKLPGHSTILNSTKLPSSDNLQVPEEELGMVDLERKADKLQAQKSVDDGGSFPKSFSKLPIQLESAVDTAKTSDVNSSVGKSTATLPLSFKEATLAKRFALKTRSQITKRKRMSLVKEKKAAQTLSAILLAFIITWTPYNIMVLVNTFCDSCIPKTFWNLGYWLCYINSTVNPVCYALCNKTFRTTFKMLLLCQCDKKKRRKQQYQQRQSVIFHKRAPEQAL

How the values were obtained:
[1] = biological target: recombinant human acetylcholinesterase (rhAChE) (Homo sapiens, UniProt P22303)
[2] = biological target: human muscarinic M3 receptor (Homo sapiens, UniProt P20309)
[3] = tested on: M3:NFATc1-EGFP U2OS human osteosarcoma cells

CCOP(=S)(OCC)Oc1nc(Cl)c(Cl)cc1Cl
lowest detection concentration ([1]; 0.01 U/mL rhAChE, 30 nM ACh, 10 min): 3 µM
IC50 ([1]; read-out: IC50 against rhAChE, AChEI preincubated with rhAChE 37° C. 30 min, AChI 10 min, cells 20 min): 13.3 µM

CC(=O)OCC[N+](C)(C)C.[I-]
concentration at which the cells appeared an activation reaction [2]: 0.3 nM
concentration at which the maximum degree of nuclear translocation of EGFP-NFATc1 was reached [2]: 30 nM
degree of nuclear translocation of EGFP-NFATc1 relative to the maximum degree ([2]; AChI 1 nM): approximately 40%

COc1cc2c(cc1OC)C(=O)C(CC1CCN(Cc3ccccc3)CC1)C2 (centres unmarked)
expression level of cell actin ([3]; FIG. 7 A and B, concentration-dependent): increased expression level of cell actin
nuclear area ([3]; FIG. 7 A and C): increased nuclear area
tubulin distribution in cells ([3]; FIG. 7 A, as concentration increased): increased tubulin distribution in a concentration-dependent manner
